{"source": "patent USRE42700E1", "about": "“Induction of apoptosis in cancer cells” (Sanford-Burnham Medical Research Institute, priority 2001, dated 2011)", "system": "M07e or patient leukemia cells", "test": "effect of kinase inhibitors on 3-Cl-AHPC-mediated apoptosis", "format": "cell-based, human"}
{"smiles": "O=[N+]([O-])c1ccc(-c2nc(-c3ccncc3)c(-c3ccc(F)cc3)[nH]2)cc1", "note": "[PD169316]", "values": [{"measurement": "effect on 3-Cl-AHPC-mediated apoptosis", "value": "did not inhibit or enhance 3-Cl-AHPC-mediated apoptosis"}]}
